Key:
[1] = system: PC-3 PIP (PSMA^+) and PC-3 flu (PSMA^-) xenografts; settings: mouse, in vivo
[2] = system: LNCaP (PSMA^+) tumor; settings: 4 h p.i., i.v.

Question: How did the “clearance of radioactivity from nontarget organs” value [1] turn out when `O=C(O)CCC(NC(=O)NC(CCCCNC(=O)c1cncc([125I])c1)C(=O)O)C(=O)O` (centres unmarked) [Compound [^125I]8, 2-(3-[1-carboxy-5-[(5-[^125I]iodo-pyridine-3-carbonyl)-amino]-pentyl]-ureido)-pentanedioic acid] was run?
Answer: complete clearance

Question: What about the “radiopharmaceutical uptake on SPECT-CT image” value [2] of the same molecule?
Answer: Tumor uptake was high, with little uptake in normal tissues

Reference: publication PMC2631656 (Journal of medicinal chemistry, 2008)
